Measured affinities in a library of Ab-14 light chain variants

The target is the same throughout: PDVDLGDISGINAS, from the HR2 region of SARS-CoV-2 spike.

Parent: Ab-14, a human scFv built as VH, the linker GGGGSGGGGSGGGGS, VL. Only the CDRs of the light chain vary.
VH: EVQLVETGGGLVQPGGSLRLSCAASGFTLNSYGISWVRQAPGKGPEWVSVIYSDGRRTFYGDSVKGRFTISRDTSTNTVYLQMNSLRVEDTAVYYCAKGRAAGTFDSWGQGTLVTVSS
VL: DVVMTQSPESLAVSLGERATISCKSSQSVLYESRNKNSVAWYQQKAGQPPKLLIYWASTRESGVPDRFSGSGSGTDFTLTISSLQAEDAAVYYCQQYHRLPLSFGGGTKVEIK

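The starting antibody came from a phage panning campaign against this peptide. Variants in AAYL50 differ from the parent at up to three CDR positions; double and triple changes were sampled at random. Affinity was read by AlphaSeq, a pooled yeast mating assay with surface-displayed partners. The frequency of each diploid, read from paired DNA barcodes, reflects how well the two displayed proteins bind. Scores were corrected for input abundance and mapped to Kd with protein pairs of known affinity run in the same pool. There are three technical replicates.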

Each variant is given by its three light chain CDRs, as the data file delimits them; those of the parent are KSSQSVLYESRNKNSVA, WASTRES, QQYHRLPLS.
Affinities are written as log10 Kd with Kd in nM; a lower number is a better binder.
The mean shown is taken over the replicates in which the pair was detected.
Where no diploid with the target was found in that replicate, the entry reads "n.d.": below detection, most likely a poor binder, though not proof of it.

CDR-L1,CDR-L2,CDR-L3,"log10 Kd, replicates",mean log10 Kd (nM),control signals
HSSQSVLYESRNKNSNA,WASTPES,QQYHRLPLS,n.d. / n.d. / n.d.,n.d.,1 of 9 (3.74)
KSAQSVLYESRNKNSVA,WQSTRES,QQAHRLPLS,4.93 / 4.34 / n.d.,4.64,0 of 9
KSSQSVLYERNNKNSVA,WASTRES,QQYHREPLS,0.87 / 1.20 / 1.00,1.02,1 of 9 (4.30)
KSSQSVLYESRNKNSVA,WAGTRES,QNYHRLPAS,n.d. / n.d. / n.d.,n.d.,2 of 9 (4.19)
ASSQSVLYESRNKNSEA,WASTRES,QQYHRLPLH,n.d. / n.d. / n.d.,n.d.,1 of 9 (1.70)
KSSQSVDYESRNKNSVA,WASTRES,QQYHRLPCS,1.28 / 1.63 / 1.16,1.36,0 of 9
KSSQSVLYESRFKNAVA,WTSTRES,QQYHRLPLS,2.29 / 2.01 / 1.89,2.06,3 of 9 (3.82)
KSSQSVLAESRNKNSVA,WASTRES,QQYHRLPSS,n.d. / n.d. / n.d.,n.d.,0 of 9
KSSGSVLYESRHKNSVA,WASTRET,QQYHRLPLS,1.09 / 1.41 / 0.83,1.11,1 of 9 (3.61)
RSSQRVLYESRNKNSVA,WASTRES,FQYHRLPLS,4.19 / n.d. / n.d.,4.19,0 of 9
KRSQSVCYESRNKNSVA,WASTRES,QQYHRLPTS,n.d. / n.d. / n.d.,n.d.,0 of 9
KSSQLVLYESRNKNSVA,WASTKES,QQYHRLPLS,1.91 / 2.19 / 2.19,2.10,0 of 9
KSSQSVLYESRNKMSVA,WASTREG,QQYHVLPLS,n.d. / n.d. / n.d.,n.d.,0 of 9
KSKQSVLYESRNGNSVA,RASTRES,QQYHRLPLS,1.06 / 1.15 / 1.13,1.11,3 of 9 (4.64)
KSSHSVLYESRNKNSCA,WASTRES,QQYHRLPLS,4.64 / n.d. / n.d.,4.64,2 of 9 (4.02)
VSSQSVMYESRNKNSVA,WASTRES,QQYHRLNLS,n.d. / 2.71 / n.d.,2.71,1 of 9 (4.04)
KSSQSVLYESRGKNSVA,WASTRES,IQYHRVPLS,4.13 / 4.45 / 2.42,3.67,1 of 9 (3.20)
KSSIKVLYESRNKNSVA,WAHTRES,QQYHRLPLS,2.28 / 2.25 / 2.33,2.29,2 of 9 (3.18)
KSCQSVLYESRVRNSVA,WASTRES,QQYHRLPLS,4.43 / 4.44 / 3.81,4.23,4 of 9 (4.28)
KSSQSVLYESENKNSLA,WASTEES,QQYHRLPLS,n.d. / n.d. / n.d.,n.d.,1 of 9 (3.69)
KSSQSVLYQSRNKNSVA,WASTRES,VQYHQLPLS,n.d. / n.d. / n.d.,n.d.,0 of 9
KSSQSALYESRNKNSVA,WASTRES,QQYNRLPGS,0.66 / 1.06 / 0.81,0.85,0 of 9
KSSQSVLYESRNMNSVW,KASTRES,QQYHRLPLS,n.d. / n.d. / n.d.,n.d.,0 of 9
CSSQSVLYESRNKNSVA,HASTRES,KQYHRLPLS,1.25 / 0.86 / 1.19,1.10,0 of 9
KSSQSVYYESQNKNSVA,WASTRES,QQYHHLPLS,0.05 / 0.49 / 0.26,0.27,2 of 9 (5.59)
KSSQSVLYESRNKNSVA,WASTRES,QDRHRLPLG,1.72 / 2.10 / 1.91,1.91,6 of 9 (4.69)
KSSQSVLYQSRNKNSVA,WASTWES,QQEHRLPLS,4.93 / n.d. / n.d.,4.93,0 of 9
KSSQSVLYESRNKNSVA,WHSTREP,QQYHRLPLS,3.23 / 2.27 / n.d.,2.75,0 of 9
KSSQSVDDESRNKQSVA,WASTRES,QQYHRLPLS,0.46 / 0.50 / 0.54,0.50,0 of 9
KSSQSVLYESDNMNSVA,WASTRES,QQYHRLPES,0.44 / 0.67 / 0.56,0.56,5 of 9 (4.84)
KSSWSVLYESRNYNSVH,WASTRES,QQYHRLPLS,n.d. / n.d. / n.d.,n.d.,1 of 9 (3.80)
KSSQSVLYESRNKNSIA,WAQTRES,QSYHRLPLS,n.d. / 2.75 / n.d.,2.75,4 of 9 (3.99)
KQSQSVLYESRNKNSVA,WASTRES,RQYHALPLS,1.60 / 2.00 / 2.02,1.87,2 of 9 (3.76)
KSSWSSLYESRYKNSVA,WASTRES,QQYHRLPLS,0.65 / 0.73 / 0.76,0.71,0 of 9
KSIQSVLYESRNKNSVA,WASTRES,QQHHRLPLS,3.73 / 4.49 / n.d.,4.11,3 of 9 (3.87)
KSSQSVLYEEINKCSVA,WASTRES,QQYHRLPLS,2.78 / 3.03 / 2.74,2.85,3 of 9 (3.72)
QSSQSVLYESRNKNSRA,WASTRES,QQYHILPLS,n.d. / 4.27 / n.d.,4.27,2 of 9 (3.68)
KSSQSVLYESRNKNSVD,WASTRES,QQYHELPLR,n.d. / n.d. / n.d.,n.d.,0 of 9
KSSQSVLYESRNKNWVA,WASTRES,QQYHRLPLW,4.30 / 2.66 / 3.28,3.42,1 of 9 (3.81)
KSSQSVLYESYNKNIVA,WASTRES,QFYHRLPLS,n.d. / n.d. / n.d.,n.d.,2 of 9 (4.16)

The 5 strongest on average among those seen in every replicate, once more:

CDR-L1,CDR-L2,CDR-L3,"log10 Kd, replicates",mean log10 Kd (nM),control signals
KSSQSVYYESQNKNSVA,WASTRES,QQYHHLPLS,0.05 / 0.49 / 0.26,0.27,2 of 9 (5.59)
KSSQSVDDESRNKQSVA,WASTRES,QQYHRLPLS,0.46 / 0.50 / 0.54,0.50,0 of 9
KSSQSVLYESDNMNSVA,WASTRES,QQYHRLPES,0.44 / 0.67 / 0.56,0.56,5 of 9 (4.84)
KSSWSSLYESRYKNSVA,WASTRES,QQYHRLPLS,0.65 / 0.73 / 0.76,0.71,0 of 9
KSSQSALYESRNKNSVA,WASTRES,QQYNRLPGS,0.66 / 1.06 / 0.81,0.85,0 of 9

Three control strains display no target. For library AAYL50, 18% of the pairings with them gave a signal, with a median of 4.19 and one signal in twenty below 2.99, so weak values seen in few replicates may be background. Also given: how often the same scFv was detected with the empty control strains, with their mean in brackets.

Source: Engelhart et al. 2022 (doi:10.1038/s41597-022-01779-4), MIT Lincoln Laboratory and A-Alpha Bio; data file from the FLAb repository.